From ChEMBL document CHEMBL3758107, “Lead optimization of the VU0486321 series of mGlu(1) PAMs. Part 2: SAR of alternative 3-methyl heterocycles and progress towards an in vivo tool” (Bioorg Med Chem Lett, 2016) come the findings set out here.

SMILES strings stand for the structures.

The species named for this assay is Homo sapiens. As to the kind of experiment: Selectivity ratio of EC50 for human mGlu5 receptor to EC50 for human mGlu1 receptor.

Consider `Cc1ccoc1C(=O)Nc1ccc(N2C(=O)c3cccc(C)c3C2=O)cc1F`, for which the Ratio EC50 was above 450.
